Entries after “also recorded” stand apart in the source; their conditions may differ.

Series [1] is described as follows: Mortality and gross toxicity on intravenous infusion. As to the method: Water was available ad libitum at all times.
The vein was then ligated dorsally to the catheter. […] Body weights were measured daily.

A further series is described as follows: Water solubility. As to conditions: in words.

As for “Partially Reduced Pentaacetoacetyl-glucose [Compound 3]”, the mortality result in series [1] (Example 7, 25 ml/day, half the initial rate) is “These rats also died”; in series [1] (Example 7, initial rate, 6.77 grams per day as 13.5% solution i.v.), “All 5 rats were dead within 24 hrs”. Also, the “survival (two rats)” value in series [1] (Example 7, 25 ml/day, pumping systems leaking) was determined as 48 h. Moreover, in series [1] (Example 7, initial rate), the gross signs entry was “lack of urinary output; also recorded: Visible skin, feet and tail, of the rat were a bright red; also recorded: diffuse hemolysis of red blood cells”. Besides, the blood sugar entry in series [1] (Example 7, two surviving rats, 25 ml/day, leaking pumps, glucose in urine) is “elevated blood sugar”. Besides, the lethality result in series [1] (in words, conclusion) is “acutely lethal and toxic”. In addition, the water solubility entry in the series “Water solubility” is reported as “completely miscible with water at all concentrations”.

The values are drawn from US5420335A, “Parenteral nutrients based on watersoluble glycerol bisacetoacetates” (priority 1993, dated 1995).
